These results are taken from US4812442A, “Tripeptide renin inhibitors” (priority 1987, dated 1989).

The chains behind the UniProt entries cited, without tags or fusion partners. Residues count along the entry.
UniProt P00797, 67-406 limits assumed: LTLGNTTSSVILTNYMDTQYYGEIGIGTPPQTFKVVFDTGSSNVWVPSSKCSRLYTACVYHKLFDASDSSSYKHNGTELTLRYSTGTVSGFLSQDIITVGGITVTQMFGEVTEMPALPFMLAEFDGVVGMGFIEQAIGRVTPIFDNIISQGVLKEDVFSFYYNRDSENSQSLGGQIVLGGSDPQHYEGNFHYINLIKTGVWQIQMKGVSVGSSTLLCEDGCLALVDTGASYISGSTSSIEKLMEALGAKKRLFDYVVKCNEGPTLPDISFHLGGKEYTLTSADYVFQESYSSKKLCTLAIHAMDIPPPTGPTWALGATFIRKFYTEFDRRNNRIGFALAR

The target of this assay is renin (Homo sapiens, UniProt P00797). The assay can be described thus: Renin inhibition IC50 (methods of J. Med. Chem., 1985, 28, 1789-1790). Type of assay: biochemical. The text has this: The following examples are intended to be representative and not limiting. IC50 results were obtained according to the methods described in J. Med. Chem., 1985, 28, 1789-1790.

Usually IC50 stands for the concentration needed to halve the response being measured. Read a high IC50 as weaker potency in that assay. `CC(C)C[C@@H](CNCc1ccccc1)NC(=O)C[C@H](O)[C@H](CC(C)C)NC(=O)[C@H](Cc1ccccc1)NC(=O)[C@H](Cc1ccccc1)NC(=O)OC(C)(C)C` yielded an IC50 of 2000 nM.
